miR-21 FLuc = miR-21 reporter, rising signal. HeLa miR-21 FLuc reporter, luciferase, 48 h. Potency, µM (titrated, usually from 38.3 µM), without a hit: at the top dose reporter change, positive = more light. 340,000 tested, under 10 active. AID 2288; active = well fitted rising curve with a large enough effect; inconclusive = small, poorly fitted or top-dose-only effect; inactive = no such curve, though single readings can be large or run the other way;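 also: % of control where 0% means no effect; miR-21 action dims this reporter so a rising signal means less miR-21 action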
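HeLa cells stably expressing CMV-driven firefly luciferase with a downstream miR-21 binding sequence, endogenously expressing miR-21, were treated with titrations (up to about 40uM final) for 48 hours at 37 degree Celsius. Luciferase luminescence was read after lysis.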
Epigenetic derep = regulators of epigenetic silencing causing reporter derepression in mouse cells; hit rate 0.2% among 280,000; murine LDR cells, GFP reporter derepression, 30 h; Potency, µM (highest dose often 53.9 µM), for inactives: top-dose GFP activation, most hits filed as activators; further: potency means the concentration at half of the fitted maximal effect; % of control where 0% means no effect; nearly all actives have a fitted effect of over 60% in size
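Murine LDR cells carrying a silenced, genomically integrated CMV-driven GFP reporter were exposed to compound for 30 hours at 37 C. After PBS washes, GFP-positive cells (20–120 um objects) were counted by laser-scanning microplate cytometry.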
IL2 activator = activators of IL-2; hit rate 0.065% among 360,000; activation, % (series mostly up to about 46 µM); IL-2 activation reporter assay, cell-based qHTS; stimulated with anti-CD3/CD4/CD28 beads; in transgenic mouse T cells; in the data active means activation above about 50%; inconclusive means mostly about 30% to 49%; further: 0% is about no effect
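EGFP and DsRed fluorescence is measured by plate cytometry in unstimulated transgenic mouse T cells exposed to compound for 60 minutes, then stimulated 18 hours at 37 degrees C with anti-CD3/anti-CD4 beads plus anti-CD28.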
p53 reactivation = mutant p53 re-activation in reporter cells. Potency, µM (doses to about 92.2 µM), for the others: at the highest dose activity change, positive = activation, usual class: activators. hit rate 0.063% among 320,000. H1299 p53-A138V BP100-luciferase reporter, luminescence, 24 h; further: potency means the concentration at half of the fitted maximal effect; % of control where 0% means no effect; nearly all actives have a fitted effect of over 45% in size
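p53-null H1299 cells stably carrying temperature-sensitive p53-A138V and a BP100-luciferase reporter were pinned with compounds (4-point, 1:5 series) and held 24 hrs at 37 deg C. Luminescence was read 10 min after detection reagent.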
PINK1 modulator = modulators of PINK1 expression | AID 624263 | PINK1 immunofluorescence, high-content cytometry, 24 h | Potency, µM (series often up to 76.6 µM), inactives show at the top dose activation (PINK1 increase), usual class: activators | hit rate 0.2% among 410,000; active means well fitted activation curve with a large enough effect; inconclusive means small, poorly fitted or top-dose-only effect; cell line not stated here; further: potency means the concentration at half of the fitted maximal effect; % of control where 0% means no effect; nearly all actives have a fitted effect of over 65% in size
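A stable cell line was treated with compounds at 5 concentrations for 24 hours, with CCCP as control. PINK1 levels and mitochondrial localization were measured by immunofluorescence with mitochondrial, cell and nuclear markers after fixation, read by laser-scanning cytometry.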
uPA generation = blocks generation of uPA at the cell surface; hit rate 0.31% among 330,000; Potency, µM (series often up to 38.3 µM), inactives show at the top dose activity change, negative = inhibition, usual class: inhibitors; cell surface uPA generation assay, qHTS; active means well fitted inhibition curve with a large enough effect; inconclusive means small, poorly fitted or top-dose-only effect; inactive means no such curve, though single readings can be large or run the other way; tested in mouse RAW 264.7 cells; further: potency means the concentration at half of the fitted maximal effect; on the % scale 0 is the no-effect control and ±100 the full control effect; nearly all actives have a fitted effect of over 55% in size
Numbers without * were called inactive. Most compounds without a hit are left out; they make up all but 0.62% or so of the library. Unless noted, the call rests on the fitted dose curve; in most records, active means well fitted curve in the direction sought with a large enough effect; inconclusive means small, poorly fitted or top-dose-only effect, or another doubt; inactive means no such curve, though single readings can be large; an effect the other way counts as inactive or inconclusive.

CCCCCCc1cc2cc(S(=O)(=O)c3ccc(F)cc3)c(=O)oc2cc1O was read as miR-21 FLuc -3.8%, Epigenetic derep 1.1%, IL2 activator 0.3, p53 reactivation -0.6%, PINK1 modulator 39.8µM* and uPA generation 1.5%.
Screening CN1CCCN(C(=O)[C@@H]2C[C@@H](Sc3nc4ccccc4[nH]3)CN2Cc2ccc(-c3ccccc3)cc2)CC1 returned PINK1 modulator 1.4%.
Screening COc1cc(OC)c(OC)cc1CN1CCOc2ccc(CN3CCN(C(C)=O)CC3)cc2C1 returned PINK1 modulator -0.3%.
For COc1cccc(N2[C@@H](CC(C)=O)c3ccc(/C=C/C(C)=O)cc3S2(=O)=O)c1 the results were IL2 activator -3.9, PINK1 modulator -1.1% and uPA generation 3.16µM*.
COc1ccc(CN2[C@@H](CC(C)=O)c3ccc(/C=C/C(C)=O)cc3S2(=O)=O)cc1 was read as IL2 activator -2.8, PINK1 modulator -0.7% and uPA generation inconclusive.
`N#C/C(=N\Nc1ccc([N+](=O)[O-])cc1)C(N)=S` gave miR-21 FLuc 9.7%, Epigenetic derep 2.3%, IL2 activator -3.0, p53 reactivation 14.7%, PINK1 modulator 25.1µM* and uPA generation -24.0%.
N#C/C(=N\Nc1cccc([N+](=O)[O-])c1)C(=O)c1ccc(Br)cc1 was read as miR-21 FLuc 19.8%, Epigenetic derep -0.6%, IL2 activator -0.8, p53 reactivation -2.8%, PINK1 modulator 4.47µM* and uPA generation -20.8%.
N#C/C(=N/Nc1ccc([N+](=O)[O-])cc1)C(=N)N1CCCCC1 was read as miR-21 FLuc -27.4%, Epigenetic derep 0.9%, IL2 activator -3.3, p53 reactivation inconclusive, PINK1 modulator 2.7% and uPA generation 3.6%.
`COc1cc2ccccc2cc1C(=O)Nc1ccc(C)cc1` gave miR-21 FLuc -25.2%, IL2 activator -0.6, p53 reactivation 0.8%, PINK1 modulator inconclusive and uPA generation 20µM*.
`Cc1ccc(NC(=O)c2ccc(C)cc2)cc1` gave IL2 activator 0.1, p53 reactivation inconclusive, PINK1 modulator 2.9% and uPA generation 2.82µM*.
`Cc1ccc(C)n1-c1ccc(NC(=O)c2ccccc2)cc1` gave miR-21 FLuc -1.0%, Epigenetic derep 0.9%, IL2 activator -3.0, p53 reactivation 18.5%, PINK1 modulator -0.2% and uPA generation -10.2%.
Screening CC(=O)Nc1ccc(NC(=O)c2ccc(-n3c(C)ccc3C)cc2)cc1 returned miR-21 FLuc -19.1%, Epigenetic derep 0.0%, IL2 activator -2.1, p53 reactivation 25.1µM*, PINK1 modulator 1.4% and uPA generation -9.8%.
Cc1nc(-c2ccc(NC(=O)c3ccccc3)cc2)cs1 was read as miR-21 FLuc 18.0%, Epigenetic derep 1.1%, IL2 activator 1.2, p53 reactivation -1.8%, PINK1 modulator 1.1% and uPA generation 2.24µM*.
`COc1ccccc1-c1ccnc(-n2ncc(C(=O)NC(c3cccnc3)C(F)(F)F)c2C)n1` (stereo not drawn) gave PINK1 modulator 6.2%.
For CCC(O)CNC(=O)c1cnn(-c2nccc(-c3cc(C)sc3C)n2)c1C1CC1 (stereo not drawn) the results were PINK1 modulator 4.8%.
Screening COc1ccc(NC(=O)c2cc3cc(OC)ccc3oc2=O)cc1 returned IL2 activator 5.8, PINK1 modulator 25.1µM* and uPA generation 0.7%.
CC(=O)Nc1cc([N+](=O)[O-])cc(NC(C)=O)c1NC(C)=O was read as PINK1 modulator 0.9%.
`COc1ccccc1C1CN(CCNC(=O)c2cnsn2)Cc2ccccc2O1` (stereo not drawn) gave PINK1 modulator 0.7%.
`COc1ccccc1N=Cc1c(C)c(C#N)c2[nH]c3ccccc3n2c1=O` gave miR-21 FLuc -11.2%, Epigenetic derep -4.7%, IL2 activator 125.8*, p53 reactivation 5.8%, PINK1 modulator 7.6% and uPA generation 3.0%.
CN(C)c1ccc(/C=N/NC(=O)c2cnc3ccccc3c2)cc1 was read as miR-21 FLuc -3.1%, Epigenetic derep inconclusive, IL2 activator 170.2*, p53 reactivation 9.6%, PINK1 modulator 8.5% and uPA generation 6.2%.
CN(C)c1ccc(/C=N/NC(=O)c2ccccn2)cc1 was read as miR-21 FLuc 1.2%, Epigenetic derep 1.2%, IL2 activator -1.8, p53 reactivation -3.1%, PINK1 modulator 0.5% and uPA generation inconclusive.
COc1cc2nc(N(C)C)nc(NC3CCN(C)CC3)c2cc1OC was read as PINK1 modulator -0.7%.
For C[C@H]1C=CC(=O)O[C@H]1c1ccccc1 the results were IL2 activator -0.1, PINK1 modulator 4.3% and uPA generation 2.51µM*.
C[C@@H]1C=CC(=O)O[C@@H]1c1ccc(C(F)(F)F)cc1 was read as miR-21 FLuc inconclusive and p53 reactivation 21.4%.
For COc1ccc(/C=C2\CCC/C(=C\C=N\N(C)C)C2=O)cc1 the results were miR-21 FLuc 28.3%, Epigenetic derep 0.0%, IL2 activator 0.5, p53 reactivation inconclusive, PINK1 modulator -0.4% and uPA generation 11.2µM*.
Cc1ncc2c(c1CNC(=O)c1ccc3c(c1)OCO3)CCN(C(=O)c1ccoc1)C2 was read as PINK1 modulator -1.1%.
Screening O=C(/C=C/Nc1ccc(F)cc1)c1ccco1 returned miR-21 FLuc -54.8%, Epigenetic derep -1.0%, IL2 activator 0.5, p53 reactivation 44.7µM*, PINK1 modulator 0.9% and uPA generation -10.5%.
`COc1cccc(C2(CC(=O)N3CCCCC3CO)CC(=O)N(C)C2=O)c1` (stereo not drawn) gave PINK1 modulator 0.3%.
COc1ccc(C)cc1NC(=O)N1CCN(c2nnc(C)c3c(C)n(-c4ccccc4)nc23)CC1 was read as miR-21 FLuc -4.8%, Epigenetic derep 4.0% and PINK1 modulator 28.2µM*.
Screening COCc1ccc(CN2CCOc3c(cc(-c4cc(C)c5cccc(OC)c5n4)cc3OC)C2)o1 returned PINK1 modulator -0.4%.
`Cc1ccc(Sc2c(CO)c(-c3ccccc3)nn2C)cc1` gave miR-21 FLuc 16.5%, Epigenetic derep 2.4%, IL2 activator -0.1, p53 reactivation 6.6%, PINK1 modulator 1.0% and uPA generation -11.8%.
For Cc1ccccc1Sc1c(C#N)c(-c2ccccc2)nn1C the results were miR-21 FLuc -1.2%, Epigenetic derep -0.3%, IL2 activator -1.9, p53 reactivation -4.7%, PINK1 modulator 7.08µM* and uPA generation 2.6%.
